Measured values reported in PubChem BioAssay AID624204 (Sanford-Burnham Center for Chemical Genomics, 2012).
Only a part is listed here, and it is no random draw. The source made the active and inactive calls.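 Rule for the calls: active = inhibition at least 30% at 10 µM, raw YFP signal under a set limit, fluorescence ratio 0.5 to 1.5; inactive = the rest.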

Sequences of proteins named here, by UniProt entry; tags and fusion partners are left off. A change or cut given only in a name is not applied to a line headed by its entry.
UniProt Q9P0U3: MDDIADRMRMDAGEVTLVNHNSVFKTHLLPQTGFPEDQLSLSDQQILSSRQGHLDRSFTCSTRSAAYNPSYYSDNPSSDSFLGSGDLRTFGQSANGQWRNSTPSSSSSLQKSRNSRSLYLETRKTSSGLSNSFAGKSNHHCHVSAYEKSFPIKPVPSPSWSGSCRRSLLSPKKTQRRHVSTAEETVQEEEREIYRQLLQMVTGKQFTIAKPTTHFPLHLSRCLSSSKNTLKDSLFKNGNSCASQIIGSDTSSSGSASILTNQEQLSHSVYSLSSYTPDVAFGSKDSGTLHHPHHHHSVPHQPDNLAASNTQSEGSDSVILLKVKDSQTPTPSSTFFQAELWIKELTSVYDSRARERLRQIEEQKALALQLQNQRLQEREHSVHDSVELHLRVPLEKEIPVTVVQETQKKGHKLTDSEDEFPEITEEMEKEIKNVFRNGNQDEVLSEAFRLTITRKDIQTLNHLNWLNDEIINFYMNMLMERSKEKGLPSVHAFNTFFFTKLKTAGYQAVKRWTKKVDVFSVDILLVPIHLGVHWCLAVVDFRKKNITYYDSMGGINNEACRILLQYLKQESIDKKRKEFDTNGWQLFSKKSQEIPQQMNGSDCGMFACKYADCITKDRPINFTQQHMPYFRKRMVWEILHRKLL

Each compound was assayed against Sentrin-specific protease 1 (Homo sapiens) (UniProt Q9P0U3) (assay: blockers of SENP1 SUMO protease activity – biochemical, FRET, uHTS, primary screen (AID 624204;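 note: 0% = enzyme with DMSO and 100% = no enzyme wells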)). Settings: recombinant SENP1 catalytic domain, CyPet-SUMO1-YPet FRET cleavage; at 10 µM; active compounds read high.
Summary of the method: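 material = recombinant human SENP1 catalytic domain, His6-tagged | quantity = 20 pM enzyme | reagent = 25 nM SUMO1 FRET substrate | compound dosing = 10 µM single point, 0.5% DMSO | timing = 50 min enzyme reaction, room temperature, light-protected | detection = FRET, CFP and YFP emission | control set = no-enzyme low, enzyme-DMSO high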

**Q.** How did the inhibition turn out when `O=[N+]([O-])c1ccc(Nc2ccc(Oc3ccc([N+](=O)[O-])cc3[N+](=O)[O-])cc2)c([N+](=O)[O-])c1` was run?
**A.** Its inhibition is inactive: 3.79%.

**Q.** With `O=P(Nc1ccccn1)(c1cccc2ccccc12)c1cccc2ccccc12` as the compound, how does the inhibition read?
**A.** The inhibition was inactive: 1.79%.

**Q.** `Cc1cc(SC(NC=O)C(Cl)(Cl)Cl)ncn1` (stereo unspecified) was tested. Which inhibition did it give?
**A.** The inhibition was inactive: -0.938%.

**Q.** `CCOC(=O)Nc1cccc([As](=O)(O)O)c1` was tested. Which inhibition did it give?
**A.** The inhibition was inactive: 1.2%.

**Q.** For `Cc1ccc2nc3c(c(C)c2c1)CC(C(Cl)Cl)S3` (stereo unspecified), which inhibition is on record?
**A.** Its inhibition is inactive: -1.82%.

**Q.** With `[N-]=[N+]=NC1CCCCC1NC(=O)c1cc([N+](=O)[O-])cc([N+](=O)[O-])c1` (stereo unspecified) as the compound, how does the inhibition read?
**A.** The inhibition was inactive: 0.707%.

**Q.** `Cc1ccc(OP(=O)(Nc2ccc([N+](=O)[O-])cn2)Oc2ccc(C)cc2)cc1` was tested. Which inhibition did it give?
**A.** The inhibition was inactive: 1.75%.

**Q.** Which inhibition does the source give for `COc1cc(C(=O)NCC2(N3CCOCC3)CCCCC2)ccc1OCC(C)C` here?
**A.** Its inhibition is inactive: 0.676%.

**Q.** How did the inhibition turn out when `O=[N+]([O-])c1ccc(-c2cc([N+](=O)[O-])c(O)c([N+](=O)[O-])c2)cc1` was run?
**A.** The inhibition was inactive: 7.67%.

**Q.** With `C[As](=O)(O)c1cccc(C(=O)O)c1` as the compound, how does the inhibition read?
**A.** The inhibition was inactive: 2.22%.

**Q.** `O=[As](O)(c1ccc(O)cc1)c1ccccc1O` was tested. Which inhibition did it give?
**A.** Its inhibition is inactive: -0.245%.

**Q.** `O=[N+]([O-])c1cc([N+](=O)[O-])c(-c2ccn[nH]2)s1` was tested. Which inhibition did it give?
**A.** The inhibition was inactive: 2.75%.

**Q.** Which inhibition does the source give for `O=C(OC1CN2CCC1CC2)c1cccc2[nH]cnc12` (stereo unspecified) here?
**A.** Its inhibition is inactive: -0.399%.

**Q.** Which inhibition does the source give for `CCN(CC)C(=S)SC(NC=O)C(Cl)(Cl)Cl` (stereo unspecified) here?
**A.** Its inhibition is inactive: -0.295%.

**Q.** For `CC(C)NC(=O)NP(=O)(Oc1ccccc1)Oc1ccccc1`, which inhibition is on record?
**A.** The inhibition was inactive: 0.257%.

**Q.** For `CC(C)c1ccc(OP(=O)(Nc2ccccn2)Oc2ccccc2F)cc1` (stereo unspecified), which inhibition is on record?
**A.** The inhibition was inactive: 0.586%.

**Q.** For `COC(=O)C1(C)COP(=O)(N2CCCCCC2)OC1` (stereo unspecified), which inhibition is on record?
**A.** Its inhibition is inactive: 0.32%.

**Q.** `ClCCSc1nnc(-c2cccnc2)o1` was tested. Which inhibition did it give?
**A.** Its inhibition is inactive: 1.64%.

**Q.** For `COc1cc(I)ccc1[As](=O)(O)O`, which inhibition is on record?
**A.** Its inhibition is inactive: 0.463%.

**Q.** Which inhibition does the source give for `COc1ccc2nc(NP(=O)(c3ccccc3)c3ccccc3)sc2c1` here?
**A.** Its inhibition is inactive: -1.05%.

**Q.** Which inhibition does the source give for `O=P1(N(CCCl)CCCl)OCCCN1CCCl` (stereo unspecified) here?
**A.** The inhibition was inactive: 0.278%.

**Q.** `O=P1(N(CCCl)CCCl)Nc2ccccc2N1` was tested. Which inhibition did it give?
**A.** The inhibition was inactive: 19.3%.

**Q.** For `Cc1cc(=O)[nH]c(N[N+](=O)[O-])n1`, which inhibition is on record?
**A.** Its inhibition is inactive: 1.06%.

**Q.** For `O=C(OC1CN2CCC1CC2)C12CC3CC(CC(C3)C1)C2` (stereo unspecified), which inhibition is on record?
**A.** Its inhibition is inactive: -1.51%.

**Q.** Which inhibition does the source give for `Cc1c2c(nc3ccccc13)SC(C(Cl)Cl)C2` (stereo unspecified) here?
**A.** Its inhibition is inactive: -2.13%.

**Q.** Which inhibition does the source give for `COc1ccc(N/C(=N/P(=O)(N2CCOCC2)N2CCOCC2)N2CCOCC2)cc1` here?
**A.** Its inhibition is inactive: 1.29%.

**Q.** `O=[N+]([O-])c1cc(Oc2ccc([N+](=O)[O-])cc2C(F)(F)F)cc([N+](=O)[O-])c1` was tested. Which inhibition did it give?
**A.** Its inhibition is inactive: -0.846%.

**Q.** `O=[As](O)(c1cccc(O)c1)c1cccc(O)c1` was tested. Which inhibition did it give?
**A.** The inhibition was inactive: 2.65%.

**Q.** `Cc1cccc(OCC(=O)OC2CN3CCC2CC3)c1` (stereo unspecified) was tested. Which inhibition did it give?
**A.** The inhibition was inactive: 0.98%.

**Q.** With `CS(=O)(=O)c1ccc(Cl)c(NC(=O)COC(=O)C(O)(c2ccccc2)c2ccccc2)c1` as the compound, how does the inhibition read?
**A.** The inhibition was inactive: 1.53%.

**Q.** `COc1cc(C(=O)NCC2(N3CCOCC3)CCCCC2)cc(Cl)c1OC(C)C` was tested. Which inhibition did it give?
**A.** The inhibition was inactive: 0.867%.

**Q.** How did the inhibition turn out when `O=[As](O)(O)c1cccnc1` was run?
**A.** Its inhibition is inactive: 1.29%.

**Q.** Which inhibition does the source give for `O=C(OC1CN2CCC1CC2)c1ccc(Cl)cc1` (stereo unspecified) here?
**A.** The inhibition was inactive: 4.22%.

**Q.** For `CCOP(=O)(Nc1cccc2ccccc12)OCC`, which inhibition is on record?
**A.** Its inhibition is inactive: -0.786%.

**Q.** With `COc1cc(C2NCCC3(OCCO3)C2(C)C)cc(OC)c1OC` (stereo unspecified) as the compound, how does the inhibition read?
**A.** The inhibition was inactive: -3.56%.

**Q.** Which inhibition does the source give for `CCCOP(=S)(Nc1nc(N)cc(=O)[nH]1)OCCC` here?
**A.** The inhibition was inactive: -0.654%.

**Q.** For `Nc1cccc2c([As](=O)(O)O)cccc12`, which inhibition is on record?
**A.** The inhibition was active: 34.1%.

**Q.** `Cc1ccc(NCCc2c([N+](=O)[O-])cc([N+](=O)[O-])cc2[N+](=O)[O-])cc1` was tested. Which inhibition did it give?
**A.** Its inhibition is inactive: 3.42%.

**Q.** With `Nc1ccccc1[As](=O)(O)c1ccccc1` as the compound, how does the inhibition read?
**A.** The inhibition was inactive: 0.414%.

**Q.** For `O=C(O)COc1ccc([As](=O)(O)O)cc1[N+](=O)[O-]`, which inhibition is on record?
**A.** Its inhibition is inactive: -0.111%.

**Q.** How did the inhibition turn out when `CS(=O)(=O)c1cc([N+](=O)[O-])c2no[n+]([O-])c2c1` was run?
**A.** Its inhibition is inactive: -35.4%.

**Q.** With `O=P(Nc1nccs1)(c1ccccc1)c1nc2ccccc2s1` (stereo unspecified) as the compound, how does the inhibition read?
**A.** Its inhibition is inactive: 0.413%.

**Q.** For `O=P(Nc1nccs1)(Oc1ccccc1)Oc1ccccc1`, which inhibition is on record?
**A.** Its inhibition is inactive: 0.816%.

**Q.** With `CCOP1(=S)c2c(C)nn(CCC#N)c2N=C(c2ccccc2F)N1C` (stereo unspecified) as the compound, how does the inhibition read?
**A.** Its inhibition is inactive: -1.9%.

**Q.** How did the inhibition turn out when `CN(C(=O)Cc1ccc(Cl)c(Cl)c1)[C@H]1CC[C@@]2(CCCO2)C[C@@H]1N1CCCC1` was run?
**A.** The inhibition was inactive: 2.92%.

**Q.** With `CN(C)C(=O)c1cc([N+](=O)[O-])cc2c1-c1c(cc([N+](=O)[O-])cc1[N+](=O)[O-])C2=O` as the compound, how does the inhibition read?
**A.** Its inhibition is inactive: 7.58%.

**Q.** How did the inhibition turn out when `O=[N+]([O-])c1ccc2c(c1)nnn2O` was run?
**A.** The inhibition was inactive: 3.08%.

**Q.** For `CCOP1(=S)c2c(C)nn(CCC#N)c2N=C(c2ccc(F)cc2)N1C` (stereo unspecified), which inhibition is on record?
**A.** Its inhibition is inactive: 2.78%.

**Q.** For `CN(C(=O)Cc1ccccc1)[C@@H]1CC[C@]2(CCCO2)C[C@H]1N1CCCC1`, which inhibition is on record?
**A.** Its inhibition is inactive: -16.1%.

**Q.** `N#CCCN(C(=O)COC(=O)C(O)(c1ccccc1)c1ccccc1)c1ccc(F)cc1` was tested. Which inhibition did it give?
**A.** The inhibition was inactive: 0.564%.

**Q.** `NC(=O)Nc1ccc([As](=O)(O)O)cc1` was tested. Which inhibition did it give?
**A.** Its inhibition is inactive: 2.65%.

**Q.** `CCCC1OP(=O)(Nc2ccccc2)OCC1CC` (stereo unspecified) was tested. Which inhibition did it give?
**A.** Its inhibition is inactive: -0.763%.

**Q.** Which inhibition does the source give for `O=C(/C=C/c1ccccc1)OC1CN2CCC1CC2` (stereo unspecified) here?
**A.** The inhibition was inactive: 0.666%.

**Q.** With `CN(C)C1(CNC(=O)c2ccc(S(C)(=O)=O)cc2)CCCCC1` as the compound, how does the inhibition read?
**A.** The inhibition was inactive: 2.04%.

**Q.** `CC1CCC(C(C)C)C(OP(=O)(Nc2ccccn2)c2ccccc2)C1` (stereo unspecified) was tested. Which inhibition did it give?
**A.** The inhibition was inactive: 1.59%.

**Q.** Which inhibition does the source give for `Cc1ccc(C(=O)OC2CN3CCC2CC3)cc1` (stereo unspecified) here?
**A.** The inhibition was inactive: -1.05%.

**Q.** `Cc1nn(-c2ccccc2)c2c1P(=O)(N1CCOCC1)N(C)C(c1ccccc1)=N2` (stereo unspecified) was tested. Which inhibition did it give?
**A.** The inhibition was inactive: 1.63%.

**Q.** How did the inhibition turn out when `O=P1(Nc2ccc(Br)cn2)COc2ccccc2OC1` was run?
**A.** Its inhibition is inactive: 1.27%.

**Q.** How did the inhibition turn out when `NS(=O)(=O)c1cccc(NC(=O)COC(=O)C(O)(c2ccccc2)c2ccccc2)c1` was run?
**A.** Its inhibition is inactive: -1.03%.

**Q.** How did the inhibition turn out when `O=[As](O)(c1cccs1)c1cccs1` was run?
**A.** Its inhibition is inactive: 4.26%.

**Q.** With `Cc1ccc(OCC(=O)OC2CN3CCC2CC3)cc1` (stereo unspecified) as the compound, how does the inhibition read?
**A.** The inhibition was inactive: 3.5%.

**Q.** With `Nc1cccc([As](=O)(O)c2ccccc2)c1` as the compound, how does the inhibition read?
**A.** Its inhibition is inactive: 4.09%.

**Q.** `O=P1(Nc2ncccn2)COc2ccccc2OC1` was tested. Which inhibition did it give?
**A.** The inhibition was inactive: -0.356%.

**Q.** `Cc1ccc(S(=O)(=O)N(CCCN)CCCc2c(C)nc(N)[nH]c2=O)cc1` was tested. Which inhibition did it give?
**A.** The inhibition was inactive: -0.309%.

**Q.** For `CC(C)(C)C(=O)NC(Sc1ncccn1)C(Cl)(Cl)Cl` (stereo unspecified), which inhibition is on record?
**A.** The inhibition was inactive: 0.127%.

**Q.** For `O=P1(N(CCCl)CCCl)NCCC(C(F)(F)F)O1` (stereo unspecified), which inhibition is on record?
**A.** Its inhibition is inactive: -0.613%.

**Q.** Which inhibition does the source give for `Clc1n[nH]nc1-c1nn[nH][15n]1` here?
**A.** The inhibition was inactive: -0.0744%.

**Q.** With `CN(CCCl)Cc1cc(Cl)c(NC2=NCCN2)c(Cl)c1` as the compound, how does the inhibition read?
**A.** Its inhibition is inactive: -3.21%.

**Q.** Which inhibition does the source give for `CCOP(=O)(Nc1ccc(C)cn1)OCC` here?
**A.** Its inhibition is inactive: 1.59%.

**Q.** For `CCOP(=O)(NC(=NC(C)c1ccccc1)NC(C)c1ccccc1)OCC` (stereo unspecified), which inhibition is on record?
**A.** Its inhibition is inactive: 0.464%.

**Q.** How did the inhibition turn out when `O=P1(Nc2ccccn2)COc2ccccc2OC1` was run?
**A.** The inhibition was inactive: 0.598%.

**Q.** For `CCC1=CC2Cc3nc4ccc(Cl)cc4c(N)c3C(C1)C2` (stereo unspecified), which inhibition is on record?
**A.** Its inhibition is inactive: -3.01%.

**Q.** How did the inhibition turn out when `CC1(CBr)Cn2c(nc3ccccc3c2=O)S1` (stereo unspecified) was run?
**A.** The inhibition was inactive: -0.829%.

**Q.** How did the inhibition turn out when `CC(C)/C=N\N=C(\N)N[N+](=O)[O-]` was run?
**A.** The inhibition was inactive: 1.42%.

**Q.** With `CN(C(=O)Cc1ccc(Cl)c(Cl)c1)[C@@H]1CCCC[C@H]1N1CCCC1` as the compound, how does the inhibition read?
**A.** Its inhibition is inactive: -1.97%.

**Q.** `COc1ccccc1CNC(=O)COC(=O)C(O)(c1ccccc1)c1ccccc1` was tested. Which inhibition did it give?
**A.** Its inhibition is inactive: 2.05%.
